The values below are quoted from earlier work in patent publication US20100075926A1, “ACTIVATION OF HISTONE DEACETYLASE 1 (HDAC1) PROTECTS AGAINST DNA DAMAGE AND INCREASES NEURONAL SURVIVAL” (priority 2008, published 2010).

The chains behind the UniProt entries cited, without tags or fusion partners.
UniProt Q9BY41, whole entry, species assumed: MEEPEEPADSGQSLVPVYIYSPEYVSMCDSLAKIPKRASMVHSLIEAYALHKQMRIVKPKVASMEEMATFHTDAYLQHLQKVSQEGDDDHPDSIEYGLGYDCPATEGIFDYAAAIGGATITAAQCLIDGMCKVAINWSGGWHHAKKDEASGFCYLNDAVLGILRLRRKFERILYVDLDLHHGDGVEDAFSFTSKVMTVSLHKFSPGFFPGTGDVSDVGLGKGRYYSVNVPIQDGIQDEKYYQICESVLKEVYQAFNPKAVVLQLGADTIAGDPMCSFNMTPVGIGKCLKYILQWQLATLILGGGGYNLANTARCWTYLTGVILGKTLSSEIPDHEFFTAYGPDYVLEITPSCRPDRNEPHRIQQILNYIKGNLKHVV
UniProt Q13547, whole entry: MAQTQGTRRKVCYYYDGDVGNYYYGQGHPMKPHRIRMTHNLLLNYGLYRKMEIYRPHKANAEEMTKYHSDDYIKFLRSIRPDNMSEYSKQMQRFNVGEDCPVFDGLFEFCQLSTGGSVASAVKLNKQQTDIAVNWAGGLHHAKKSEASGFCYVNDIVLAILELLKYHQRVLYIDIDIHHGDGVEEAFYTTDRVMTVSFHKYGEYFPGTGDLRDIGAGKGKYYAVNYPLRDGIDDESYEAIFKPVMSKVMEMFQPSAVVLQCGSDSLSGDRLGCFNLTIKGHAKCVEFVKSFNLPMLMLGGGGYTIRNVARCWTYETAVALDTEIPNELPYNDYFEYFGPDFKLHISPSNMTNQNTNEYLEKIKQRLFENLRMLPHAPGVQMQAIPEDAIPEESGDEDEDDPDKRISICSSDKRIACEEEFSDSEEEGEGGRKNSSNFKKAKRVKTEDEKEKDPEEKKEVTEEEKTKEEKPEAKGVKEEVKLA

Data set [1] deals with HDAC8 (Homo sapiens, UniProt Q9BY41). The settings on record: 1 μM; cited from earlier work.
Data set [2] has as its target HDAC1 (Homo sapiens, UniProt Q13547). The settings on record: 1 μM; cited from earlier work.

Consider `Nc1ccccc1NC(=O)c1ccc(CNC(=O)OCc2cccnc2)cc1` [MS-275], for which the “effects on HDAC8” value in data set [1] was “negligible effects”. Moreover, in data set [2], the “inhibition of HDAC1 activity” value was “over 70%”.
